Literature values in PMC9906638, “AlphaFold accelerates artificial intelligence powered drug discovery: efficient discovery of a novel CDK20 small molecule inhibitor” (Chemical Science, 2023).

By UniProt entry, the sequences of proteins in these tests, tags left out. Where a name states a change or a piece, a line headed by the entry shows the natural chain unless it says otherwise.
UniProt Q8IZL9: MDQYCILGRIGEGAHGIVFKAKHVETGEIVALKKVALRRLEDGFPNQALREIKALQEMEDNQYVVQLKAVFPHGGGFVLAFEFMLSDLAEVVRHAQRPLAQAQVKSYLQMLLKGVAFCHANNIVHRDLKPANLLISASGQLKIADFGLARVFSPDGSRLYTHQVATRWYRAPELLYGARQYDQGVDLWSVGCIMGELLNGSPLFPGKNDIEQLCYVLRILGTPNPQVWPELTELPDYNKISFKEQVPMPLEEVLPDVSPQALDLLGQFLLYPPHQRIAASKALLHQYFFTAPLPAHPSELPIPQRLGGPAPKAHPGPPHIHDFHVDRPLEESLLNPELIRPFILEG

Target: T1, CDK20/CycT1 (Homo sapiens, UniProt Q8IZL9)
T1 construct: purchased Reaction Biology Corp. (33PanQinase Activity Assay service)
Design: method as in doi:10.1158/1538-7445.AM2016-2821
Conditions: poster of Mueller et al.; cited from earlier work

CN1CC[C@H](c2c(O)cc(O)c3c(=O)cc(-c4ccccc4Cl)oc23)[C@H](O)C1 [Flavopiridol]
pIC50: 5.59

pIC50: −log10 of the molar value.
